The target in assay [1] is T1, human NOP (Homo sapiens, UniProt P41146). The experiment in a line: NOP receptor–G protein interaction BRET assay. The format is biochemical. Set-up: expressed in transfected cells; host or cells: membranes of HEK293 cells stably coexpressing NOP-RLuc and Gβ1-RGFP. The settings on record: N = 5 experiments in duplicate. As for the experimental part:
A BRET interaction assay was used, as previously detailed in ref , to study the propensity of ligands to evoke interaction between the NOP receptor and to G protein. Membranes taken from HEK293 cells stably coexpressing the fusoproteins NOP-RLuc and Gβ1-RGFP were used. Such cells were grown in DMEM medium supplemented with 10% FBS, 2 mM L-glutamine, […] G418, […] hygromycin B, 100 IU/mL penicillin, and 100 IU/mL streptomycin in a humidified atmosphere with 5% CO2 at 37 °C. Cell membranes were thawed and resuspended in PBS supplemented with 0.01% BSA before the assay, and an amount of 3 μg of total protein was dispensed in each of the 96 wells together with 2 μM Prolume Purple Coelenterazine. All experiments were carried out at room temperature. Ligands were added, and averaged BRET ratios from 10 min measurements were computed. […]
Concentration-response curves to agonists were analyzed by a four-parameter logistic nonlinear regression model: Effect = baseline + (E max – baseline)/(1 + 10^((logEC50–log[ligand])slope)). […] Experimental data were expressed as mean ± sem of at least 5 experiments. Potency values were expressed as the mean and CL95%. In vitro E max values were analyzed by one-way ANOVA, while in vivo latency data were evaluated by one-way ANOVA followed by Dunnett’s post hoc test. […]
Background: BRET reads energy transfer from a luciferase to a nearby fluorophore.

Assay [2] deals with T1, human NOP. The experiment in a line: Calcium mobilization assay, CHO cells with NOP receptor and chimeric G protein. The class given is cell-based. Set-up: expressed in transfected cells. As for the experimental part: Chinese hamster ovary (CHO) cells stably coexpressing the human NOP, μ, or κ opioid receptors and the Gαqi5 protein or the human δ and the GαqG66Di5 protein were used in this assay. , Cells were cultured in DMEM/F-12 (1:1) medium supplemented with 10% FBS, 2 mM L-glutamine, […], 100 IU/mL penicillin, and 100 IU/mL streptomycin. Cells were maintained at 37 °C in a humidified atmosphere with 5% CO2 and were seeded at 50 000 cells/well into 96-well black, clear-bottom plates 24 h before test. Loading for 45 min with a solution consisting of HBSS supplemented with 2.5 mM probenecid, 3 μM Fluo-4 AM, and 0.01% pluronic acid ensures the calcium-sensitive dye (Fluo-4) reaches the needed concentration inside the cell, while the exchange of the solution with 100 μL/well of buffer consisting of HBSS with 20 mM HEPES, 2.5 mM probenecid, and 500 μM Brilliant Black allows for fluorescence background to decrease. Serial dilutions of ligands were prepared in HBSS buffer with 20 mM HEPES and 0.02% bovine serum albumin (BSA) to minimize the ligands’ stickiness to plasticware. The automated microplate reader FlexStation II (Molecular Devices, CA, US) was employed at 37 °C to detect changes in fluorescence intensity. The effects of all compounds were expressed as the maximum change in percentage over the baseline fluorescence measured in samples treated with vehicles. […]
In general terms: Calcium assays in cells follow changes in intracellular calcium, usually with a dye or a luminescent sensor.

This note sets out measurements from PMC12621184, “Synthesis and Pharmacological Characterization of Nociceptin/Orphanin FQ Dimeric Ligands” (Journal of Medicinal Chemistry, 2025).

Turning to “[[Cys^15]N/OFQ-NH2]2 (FGGFTGARKSARKLCNQ; C-terminal amide; Cys15 disulfide-bonded to Cys15 of the second copy) [1i]”, the “NOP–G protein interaction E max ± sem” value in the assay with human NOP [1] (effects normalized to N/OFQ-NH2 (E max = 1), mean ± sem) is given as 0.95 ± 0.03. For the same substance, in the assay with human NOP [1] (membranes from HEK293 cells coexpressing NOP-RLuc and Gβ1-RGFP, room temperature, mean (CL95%)), the “NOP–G protein interaction pEC50 (CL95%)” value is recorded as 9.71 (8.95–10.48). In addition, the “Ca^2+ mobilization pEC50 (CL95%)” value in the assay with human NOP [2] (CHO cells coexpressing human NOP and Gαqi5, Fluo-4, 37 °C, mean (CL95%), N = 5 experiments in duplicate) is 8.53(7.78–9.28). For the same substance, in the assay with human NOP [2] (CHO cells coexpressing human NOP and Gαqi5, maximum change in percentage over baseline fluorescence, mean ± sem, N = 5 in duplicate), the “Ca^2+ mobilization E max ± sem” value is given as 297 ± 26 % over the baseline.
